This experiment has as its system S. aureus ATCC 29213 (NB01001). The experiment can be described thus: MIC, broth microdilution (CLSI). Format: cell-based. Particulars: Staphylococcus aureus, ATCC29213, 20 h, read-out: Antibacterial activity (MIC) NB01001.

Regarding `Cc1c(N2CC[C@@H]([C@H](C)N)C2)c(F)cc2cc(C(=O)O)c(=O)n(C3CC3)c12.Cl` [Example 1.1, 7-((R)-3-((S)-1-aminoethyl)pyrrolidin-1-yl)-1-cyclopropyl-6-fluoro-8-methyl-2-oxo-1,2-dihydroquinoline-3-carboxylic acid hydrochloride salt], the MIC was 0.125 µg/mL.
